Key:
[1] = target: T1, RAMP2-CLR (AM1 receptor) (Homo sapiens, UniProt O60895+Q16602); assay: cAMP accumulation, HEK-293S cells, RAMP2 + CLR; format: cell-based
T1 construct: FLAG; expressed in transfected cells; host or cells: HEK-293 or HEK-293S cells, transient transfection, 1:1 RAMP:CLR
Experimental: HEK-293 cells were transfected with FuGENE 6 (Roche Applied Science) in accordance with the manufacturer's instructions using a 1:3 (w:v) DNA:FuGENE ratio and a 1:1 ratio of RAMP to CLR. […] The transfected cell lines were grown for 24–48 h prior to assaying.
The transfected HEK-293 cells were washed in PBS, resuspended in stimulation buffer (PBS containing 0.1% BSA and 0.5 mM IBMX), and seeded at 2000 cells/well in 384-well white Optiplates. Ligands were added in the range of 1 pM to 1 mM, and cAMP accumulation was measured after 30 min of stimulation using a LANCE® cAMP detection kit (PerkinElmer Life Sciences). […] Plates were read using a Mithras LB 940 multimode microplate reader (Berthold Technologies). […] Values were converted to concentration using a cAMP standard curve performed in parallel.
Data analysis for cAMP assays was performed in GraphPad Prism 6.0f (San Diego, CA). […] These values were then used to quantify signaling bias as change in log (τ/Ka) relative to the natural cognate ligand for the respective receptor ([41]). […] Statistical differences were analyzed using one-way ANOVA or Student's t test as appropriate with post hoc Bonferroni's or Dunnett's multiple comparisons, and p < 0.05 was considered significant. […] To quantitate the ligand-dependent response in the yeast system, a strain lacking GPA1 (MMY11), grown in rich medium, was used as a standard ([72]). […]

Sequences of proteins named here, by UniProt entry; tags and fusion partners are left off. Residues count along the entry.
UniProt O60895, 43-175: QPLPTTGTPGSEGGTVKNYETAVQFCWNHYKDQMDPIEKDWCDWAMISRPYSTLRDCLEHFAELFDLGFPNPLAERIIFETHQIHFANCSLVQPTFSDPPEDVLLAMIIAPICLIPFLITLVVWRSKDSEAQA
UniProt Q16602, 23-461: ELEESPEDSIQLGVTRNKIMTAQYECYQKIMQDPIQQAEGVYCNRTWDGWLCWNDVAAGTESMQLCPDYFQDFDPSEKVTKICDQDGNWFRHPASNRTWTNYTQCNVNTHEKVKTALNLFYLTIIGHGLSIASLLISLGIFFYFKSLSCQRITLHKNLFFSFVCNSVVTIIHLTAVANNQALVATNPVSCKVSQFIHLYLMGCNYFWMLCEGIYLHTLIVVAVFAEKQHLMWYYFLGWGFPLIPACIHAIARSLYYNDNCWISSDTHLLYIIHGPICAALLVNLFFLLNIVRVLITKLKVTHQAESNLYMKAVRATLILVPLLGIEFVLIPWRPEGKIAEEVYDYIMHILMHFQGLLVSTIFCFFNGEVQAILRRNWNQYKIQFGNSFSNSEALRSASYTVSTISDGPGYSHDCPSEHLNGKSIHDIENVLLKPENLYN
UniProt O60896, 24-148: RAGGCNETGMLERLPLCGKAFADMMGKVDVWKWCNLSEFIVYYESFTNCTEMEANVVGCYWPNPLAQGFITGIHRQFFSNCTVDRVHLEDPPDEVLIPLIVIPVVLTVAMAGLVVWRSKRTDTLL

[2] = target: T2, RAMP3-CLR (AM2 receptor) (Homo sapiens, UniProt O60896+Q16602); assay: (Ca^2+)i mobilization, HEK-293S cells, RAMP3 + CLR; format: cell-based
T2 construct: FLAG; expressed in transfected cells; host or cells: HEK-293 or HEK-293S cells, transient transfection, 1:1 RAMP:CLR
Experimental: HEK-293 cells, provided by Dr. Jügen Müller (University of Aston), were cultured in DMEM supplemented with 10% heat-inactivated FBS and kept at 37 °C in a humidified 95% air, 5% CO2 incubator. HEK-293S cells (a gift from AstraZeneca) were cultured in DMEM supplemented with 8% heat-inactivated FBS and kept at 37 °C in a humidified 95% air, 5% CO2 incubator. HEK-293 cells were transfected with FuGENE 6 (Roche Applied Science) in accordance with the manufacturer's instructions using a 1:3 (w:v) DNA:FuGENE ratio and a 1:1 ratio of RAMP to CLR. HEK-293S cells were seeded into 96-well poly-D-lysine-coated plates at a density of 15,000 cells/well (determined using a Countess^TM cell counter, Invitrogen) 1 day prior to transfection. HEK-293S cells were transiently transfected as described previously ([38]) using a 1:1 ratio of RAMP to CLR. The transfected cell lines were grown for 24–48 h prior to assaying.
Transfected HEK-293 cells were grown to confluence in black, clear bottomed, 96-well plates. […] Ligands were added robotically using a Mithras LB 940 multimode microplate reader in the range of 10 pM to 1 μM, and fluorescence was determined immediately post-injection with an excitation wavelength set to 485 nm and an emission wavelength set to 535 nm. […] Peak magnitude was calculated using five-point smoothing followed by correction against background fluorescence. […]

- EC50 [1]: 2.69 nM
- EC50 [2]: 36.3 nM
- Kd [2]: 44.7 nM
Compound: CSCC[C@H](NC(=O)[C@H](CC(C)C)NC(=O)[C@H](CCC(N)=O)NC(=O)[C@H](Cc1c[nH]c2ccccc12)NC(=O)[C@H](CC(C)C)NC(=O)[C@H](CCCNC(=N)N)NC(=O)[C@H](Cc1c[nH]cn1)NC(=O)[C@H](CO)NC(=O)[C@H](CC(C)C)NC(=O)[C@H](CC(N)=O)NC(=O)[C@H](CCC(N)=O)NC(=O)[C@@H](NC(=O)[C@H](CCC(N)=O)NC(=O)[C@@H]1CSSC[C@H](NC(=O)CNC(=O)[C@@H](NC(=O)[C@H](CCCNC(=N)N)NC(=O)[C@H](CC(C)C)NC(=O)[C@H](CC(C)C)NC(=O)[C@H](CCC(N)=O)NC(=O)[C@H](C)NC(=O)[C@H](CCC(N)=O)NC(=O)[C@@H](N)[C@@H](C)O)C(C)C)C(=O)N[C@@H](C(C)C)C(=O)N[C@@H](CC(C)C)C(=O)NCC(=O)N[C@@H]([C@@H](C)O)C(=O)N1)C(C)C)C(=O)NCC(=O)N1CCC[C@H]1C(=O)N[C@@H](C)C(=O)NCC(=O)N[C@@H](CCCNC(=N)N)C(=O)N[C@@H](CCC(N)=O)C(=O)N[C@@H](CC(=O)O)C(=O)N[C@@H](CO)C(=O)N[C@@H](C)C(=O)N1CCC[C@H]1C(=O)N[C@H](C(=O)N[C@@H](CC(=O)O)C(=O)N1CCC[C@H]1C(=O)N[C@@H](CO)C(=O)N[C@@H](CO)C(=O)N1CCC[C@H]1C(=O)N[C@@H](Cc1c[nH]cn1)C(=O)N[C@@H](CO)C(=O)N[C@@H](Cc1ccc(O)cc1)C(N)=O)C(C)C [AM2, adrenomedullin 2]
